Publication PMC3031448 (Journal of natural products, 2009)

Tests used:
[1] = system: HCT-116 (colon); conditions: NCI panel
[2] = system: MDA-MB-468 (breast); conditions: NCI panel
[3] = system: DLD-1 human colorectal adenocarcinoma; assay: Cytotoxicity; type: cell-based; conditions: DLD-1 vs Vero
[4] = system: SK-MEL-5 (melanoma); conditions: NCI panel
[5] = system: PANC-1 human pancreatic carcinoma; assay: Cytotoxicity; type: cell-based; conditions: Panc-1 vs Vero
[6] = system: T-47D (breast); conditions: NCI panel
[7] = system: SR (leukemia); conditions: NCI panel

SMILES: CC(=O)N(C)CCc1cc(Br)c(OCCCNc2ncn(C)c3ncnc2-3)c(Br)c1 [Aphrocallistin, aphrocallistin]
- selectivity of growth inhibition [1]: significant selectivity of growth inhibition
- selectivity of growth inhibition [2]: significant selectivity of growth inhibition
- potency against DLD-1 relative to Vero cells [3]: about 10 times
- selectivity of growth inhibition [4]: significant selectivity of growth inhibition
- potency against Panc-1 cells relative to Vero cells [5]: about three
- selectivity of growth inhibition [6]: significant selectivity of growth inhibition
- selectivity of growth inhibition [7]: significant selectivity of growth inhibition
